From PubChem
ARFGAP1 inhibitor: inhibitors of rat ARFGAP1 GAP activity, primary screen, biochemical, fluorescence polarization, GDP tracer; ADP-ribosylation factor GTPase-activating protein 1 (Rattus norvegicus), Q62848; 0.26% of 360,000 active; Arfgap1-stimulated ARF1 GTP hydrolysis, GDP FP detection; inhibition, % at 16.5 µM;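 active means inhibition above a per-plate limit, mean inhibition of low control wells plus 3 SD, cut at about 25% in these data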;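 further: 0% = DMSO wells with enzyme and 100% = wells lacking Arfgap1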
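Material: rat Arfgap1 catalytic domain, aa 1-136; also added: human ARF1(Δ1-17)-GTP substrate; compound dosing: one concentration, 16.5 µM, DMSO 1.26%; incubation: GTP hydrolysis reaction 2 h at 25 °C; measured by: Tracer-displacement fluorescence polarization with EDTA stop, 620/688 nm; evaluation: % inhibition from polarization; repeats: one replicate per compound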
ASAP1 inh: inhibitors of human ASAP1 ArfGAP activity, primary screen, biochemical, fluorescence polarization | Arf-GAP with SH3 domain, ANK repeat and PH domain-containing protein 1 (Homo sapiens), … | AID 624377, 2012 | 0.19% of 360,000 active | ASAP1-stimulated ARF1 GTP hydrolysis, GDP FP detection | inhibition, % at 16.5 µM; in the data active means inhibition above about 25%;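 further: 0% = vehicle with enzyme and substrate and 100% = no enzyme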
MC4R barr agon: MC4R agonists recruiting beta-arrestin, primary screen, cell-based, luminescence, agonist arm of biased-ligand search | U2OS MC4R beta-arrestin complementation; percent of melanotan II response, DMSO zero | 0.98% of 360,000 active | Melanocortin receptor 4 (Homo sapiens), P32245 | activation, % at 8.9 µM;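 active means activation above a per-plate cutoff, the mean activation of sample wells on that plate plus 3 SD, cut at about 8% in these data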
MC4R antagonist: MC4R antagonists of cAMP signaling, primary screen, cell-based, TR-FRET, antagonist arm of biased-ligand search; MC4R-expressing cells, MTII-stimulated cAMP, LANCE TR-FRET; inhibition, % at 6.5 µM; 0.48% of 360,000 active;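 active means inhibition above its plate's cutoff, the mean of tested wells on that plate plus 3 SD, cut at about 29% in these data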;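 further: 0% = Melanotan II alone and 100% = Melanotan II plus saturating MCL0020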
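Assay system: human MC4R-expressing U2OS cells; reagent: Melanotan II stimulation of cells; dosing: 6.5 µM single dose; timing: compound 30 min, challenge 1 h, detection 1 h; signal: TR-FRET cAMP assay; replicates: one well per compound, no replicates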
NRP1-CendR mod: modulators of CendR peptide binding to NRP-1, primary screen, biochemical, fluorescence polarization, uHTS; Neuropilin-1 (Homo sapiens), O14786; FAM-RPARPAR peptide binding to NRP-1; inhibition, % at 25 µM; 0.85% of 360,000 active;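 active means inhibition or corrected inhibition above about 18%, plus a signal ratio from 0.5 to 1.5, limit read from the data, passing the limit was not always enough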
Yeast UUG start: modulators of yeast start codon fidelity, primary screen, whole organism, S. cerevisiae, single point, plate reader | AID 602363, 2012 | S. cerevisiae UUG-firefly luciferase reporter, luminescence/redox ratio | activity score, % at 18.7 µM | hit rate 0.13% among 350,000;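 active = replicate mean at a twofold rise or more, about +100% in these data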;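 also: firefly luciferase made from a UUG start codon reports start codon fidelity; reporter light over untreated wells divided by growth signal over untreated wells; some hits fall short of that in this replicate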
Numbers without * were called inactive; nt = no result. An excerpt weighted towards active compounds, which were near 2.3% of everything screened.

Amino acid sequences for entries named in this document (tags omitted). Residues count along the entry.
ADP-ribosylation factor GTPase-activating protein 1 (Rattus norvegicus), Q62848, UniProt Q62848, whole entry, looked up: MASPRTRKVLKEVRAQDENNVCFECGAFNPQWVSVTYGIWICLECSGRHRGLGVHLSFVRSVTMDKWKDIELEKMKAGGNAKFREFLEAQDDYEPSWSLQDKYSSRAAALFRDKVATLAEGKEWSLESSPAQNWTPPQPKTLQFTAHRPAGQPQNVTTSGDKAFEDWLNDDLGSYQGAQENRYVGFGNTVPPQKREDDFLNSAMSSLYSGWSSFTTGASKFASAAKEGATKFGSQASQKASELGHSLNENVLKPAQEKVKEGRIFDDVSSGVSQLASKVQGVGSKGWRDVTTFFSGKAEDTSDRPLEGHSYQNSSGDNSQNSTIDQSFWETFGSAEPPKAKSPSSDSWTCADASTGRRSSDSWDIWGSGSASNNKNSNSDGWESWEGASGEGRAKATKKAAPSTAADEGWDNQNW
ADP-ribosylation factor GTPase-activating protein 1 (Rattus norvegicus), Q62848, UniProt Q62848, 1-136 limits assumed: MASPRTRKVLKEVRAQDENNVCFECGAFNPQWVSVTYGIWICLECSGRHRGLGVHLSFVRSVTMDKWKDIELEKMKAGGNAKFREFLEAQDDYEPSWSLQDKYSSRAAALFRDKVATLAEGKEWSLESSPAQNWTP
Melanocortin receptor 4 (Homo sapiens), P32245, UniProt P32245, whole entry, looked up: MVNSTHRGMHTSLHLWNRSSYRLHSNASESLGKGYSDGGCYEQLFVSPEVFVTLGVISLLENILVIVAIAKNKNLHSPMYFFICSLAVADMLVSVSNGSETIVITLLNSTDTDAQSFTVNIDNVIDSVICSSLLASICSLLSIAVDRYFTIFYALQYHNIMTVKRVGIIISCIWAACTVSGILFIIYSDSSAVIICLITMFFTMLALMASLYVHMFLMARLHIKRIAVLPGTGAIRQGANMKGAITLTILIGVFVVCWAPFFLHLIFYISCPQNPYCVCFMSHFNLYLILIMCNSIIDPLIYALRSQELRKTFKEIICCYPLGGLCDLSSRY
Neuropilin-1 (Homo sapiens), O14786, UniProt O14786, whole entry, looked up: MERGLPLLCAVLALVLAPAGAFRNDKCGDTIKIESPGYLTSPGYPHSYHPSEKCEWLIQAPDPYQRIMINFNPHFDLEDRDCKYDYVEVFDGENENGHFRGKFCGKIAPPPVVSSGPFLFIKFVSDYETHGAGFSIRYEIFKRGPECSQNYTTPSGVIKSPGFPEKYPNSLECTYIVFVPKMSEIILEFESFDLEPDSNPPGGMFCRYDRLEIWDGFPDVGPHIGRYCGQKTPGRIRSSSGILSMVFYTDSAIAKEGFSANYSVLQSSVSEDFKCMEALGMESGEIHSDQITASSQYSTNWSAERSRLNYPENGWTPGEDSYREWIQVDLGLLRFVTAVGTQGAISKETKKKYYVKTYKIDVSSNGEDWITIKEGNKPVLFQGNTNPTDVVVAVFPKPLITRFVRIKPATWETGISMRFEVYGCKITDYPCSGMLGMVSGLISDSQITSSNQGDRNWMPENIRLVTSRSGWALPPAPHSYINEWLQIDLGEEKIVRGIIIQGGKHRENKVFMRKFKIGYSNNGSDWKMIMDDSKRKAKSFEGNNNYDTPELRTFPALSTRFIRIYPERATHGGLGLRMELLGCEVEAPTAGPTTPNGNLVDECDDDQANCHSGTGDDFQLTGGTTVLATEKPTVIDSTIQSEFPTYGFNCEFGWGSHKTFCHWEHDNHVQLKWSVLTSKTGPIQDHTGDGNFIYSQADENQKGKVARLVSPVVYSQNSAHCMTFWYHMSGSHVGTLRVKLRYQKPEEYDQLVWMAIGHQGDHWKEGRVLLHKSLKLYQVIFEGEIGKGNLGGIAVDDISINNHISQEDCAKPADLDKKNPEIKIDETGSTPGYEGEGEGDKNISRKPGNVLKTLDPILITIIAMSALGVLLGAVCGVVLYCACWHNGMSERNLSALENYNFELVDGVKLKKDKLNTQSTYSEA

#1 CC1(c2nnc(-c3ccc(F)cc3)o2)CC(c2c(Cl)cccc2Cl)=NO1 (centres undefined)
#2 CC1(c2nnc(-c3ccc(Cl)cc3)o2)CC(c2c(Cl)cccc2Cl)=NO1 (centres undefined)
#3 CC(C)c1ccc(S(=O)(=O)/N=C2\C=C(NS(=O)(=O)c3ccccc3)C(=O)c3ccccc32)cc1
#4 CCc1ccc(S(=O)(=O)/N=C2\C=C(NS(=O)(=O)c3ccccc3)C(=O)c3ccccc32)cc1
#5 O=C(O)c1ccc(S(=O)(=O)/N=C2\C=C(Nc3ccccc3F)C(=O)c3ccccc32)cc1
#6 Cc1ccccc1NC1=C/C(=N\S(=O)(=O)c2ccc(C(=O)O)cc2)c2ccccc2C1=O
#7 C[C@@H]1CN([C@@H](C)CO)C(=O)c2cc(NC(=O)Nc3ccc4c(c3)OCO4)ccc2O[C@@H]1CN(C)C(=O)Nc1ccc(F)cc1
#8 CO[C@H]1CN(C)C(=O)c2cc(NC(C)=O)ccc2OC[C@H](C)N(C(=O)c2ccncc2)C[C@H]1C
#9 COCC(=O)Nc1ccc2c(c1)OC[C@H](C)N(C(=O)COC)C[C@@H](C)[C@@H](OC)CN(C)C2=O
#10 COc1ccc(NC(=O)c2ccc(-c3ccc(OC)cc3)s2)cc1
entry no. | 1 | 2 | 3 | 4 | 5 | 6 | 7 | 8 | 9 | 10
ARFGAP1 inhibitor | -2 | 6 | -12 | -2 | -9 | -13 | nt | nt | nt | 5
ASAP1 inh | 3 | 6 | 10 | 11 | -2 | 12 | nt | nt | nt | 18
MC4R barr agon | 1 | -1 | 2 | 2 | -1 | -4 | nt | nt | nt | 8.5*
MC4R antagonist | -4 | -3 | 7 | 1 | -60 | -24 | nt | nt | nt | -8
NRP1-CendR mod | 29* | 7 | 31* | 16 | 19* | 24* | nt | nt | nt | 1
Yeast UUG start | -14 | -24 | -20 | 10 | -37 | -51 | 2 | 8 | -3 | nt

#11 CNC(=O)c1ccc(-c2ccc(OC)cc2)s1
#12 Cc1ccccc1N1CCN(C2CCCN(C(=O)CCN3CCCCO3)C2)CC1 (centres undefined)
#13 COc1ccccc1N1CCN(C2CCCN(C(=O)Cn3cccn3)C2)CC1 (centres undefined)
#14 Cc1ccccc1N1CCN(C2CCCN(C(=O)CCN3CCCCC3=O)C2)CC1 (centres undefined)
#15 C[C@@H]1CN([C@H](C)CO)C(=O)c2cc(NC(=O)c3ccncc3)ccc2O[C@H]1CN(C)C(=O)Nc1ccccc1
#16 CO[C@@H]1CN(C)C(=O)c2cc(NC(C)=O)ccc2OC[C@@H](C)N(Cc2ccccn2)C[C@@H]1C
#17 NCc1cc2c3c(c1)CCCN3CCC2
#18 Cn1ccnc1SCC(=O)Nc1ccc(Cl)cn1
#19 Cn1ccnc1SCC(=O)Nc1ccc([N+](=O)[O-])cn1
#20 O=C1C(C=NCCN2CCOCC2)=C(O)c2ccccc21
entry no. | 11 | 12 | 13 | 14 | 15 | 16 | 17 | 18 | 19 | 20
ARFGAP1 inhibitor | -5 | 5 | 5 | 0 | nt | nt | 12 | 9 | -14 | -3
ASAP1 inh | 4 | -11 | -11 | 7 | nt | nt | 19 | 0 | -1 | -2
MC4R barr agon | 0 | -2 | -2 | -1 | nt | nt | -2 | -1 | -1 | 0
MC4R antagonist | 8 | 5 | 4 | 7 | nt | nt | 0 | 13 | -7 | 15
NRP1-CendR mod | -9 | 26* | 24* | -2 | nt | nt | 40* | 18* | 3 | 27*
Yeast UUG start | -26 | -19 | -6 | -17 | -10 | -17 | -10 | nt | -15 | -1

#21 CCCNC(=O)C[C@@H]1CC[C@@H]2[C@H](COC[C@H](O)CN2C(=O)Nc2c(C)noc2C)O1
#22 COCCNC(=S)N(CCc1c(C)[nH]c2ccc(F)cc12)Cc1cccs1
#23 COCCNC(=S)N(CCc1c(C)[nH]c2ccc(Cl)cc12)Cc1cccs1
#24 O=C(COc1cc(Cl)c(Cl)cc1Cl)Nc1ccc([N+](=O)[O-])cc1Cl
#25 O=C(COC(=O)c1ccco1)Nc1ccc([N+](=O)[O-])cc1Cl
#26 CC(C)NS(=O)(=O)c1ccc(NC(=O)C(C)OC(=O)CCC2CCCC2)cc1 (centres undefined)
#27 CC(=O)Nc1ccc(NC(=O)C(C)OC(=O)CCC2CCCCC2)cc1 (centres undefined)
#28 C[C@@H]1CCCCO[C@H](CN(C)C(=O)C2CCCCC2)[C@H](C)CN([C@H](C)CO)C(=O)c2cc(NS(=O)(=O)c3cccs3)ccc2O1
#29 CN(CC(=O)N1CCc2[nH]c3ccc(F)cc3c2C1)CC1OCCO1
#30 O=C(CN1CCN(Cc2ccc3c(c2)OCO3)CC1)N1CCc2[nH]c3ccc(F)cc3c2C1
entry no. | 21 | 22 | 23 | 24 | 25 | 26 | 27 | 28 | 29 | 30
ARFGAP1 inhibitor | nt | 6 | 10 | 3 | 3 | 11 | 2 | nt | 5 | -8
ASAP1 inh | nt | 16 | 18 | 2 | -10 | 4 | -8 | nt | -8 | -21
MC4R barr agon | nt | -2 | -3 | 1 | -1 | 8.4* | -1 | nt | nt | -2
MC4R antagonist | nt | 1 | 11 | 23 | 4 | 9 | -2 | nt | nt | 1
NRP1-CendR mod | nt | 32* | 4 | 24* | -6 | -7 | 4 | nt | nt | 34*
Yeast UUG start | -11 | nt | -8 | -9 | -12 | 17 | -2 | 18 | nt | 13

Looked up one by one from the list above (3):
#29 CN(CC(=O)N1CCc2[nH]c3ccc(F)cc3c2C1)CC1OCCO1
#24 O=C(COc1cc(Cl)c(Cl)cc1Cl)Nc1ccc([N+](=O)[O-])cc1Cl
#17 NCc1cc2c3c(c1)CCCN3CCC2
entry no. | 29 | 24 | 17
ARFGAP1 inhibitor | 5 | 3 | 12
ASAP1 inh | -8 | 2 | 19
MC4R barr agon | nt | 1 | -2
MC4R antagonist | nt | 23 | 0
NRP1-CendR mod | nt | 24* | 40*
Yeast UUG start | nt | -9 | -10

New compounds follow
#31 O=C(NCCS(=O)(=O)N1CCN(c2ccccc2)CC1)c1ccccc1F
#32 COc1cccc(C(=O)NCCS(=O)(=O)N2CCN(c3ccccc3)CC2)c1OC
#33 COc1ccccc1NC(=O)N(Cc1ccco1)Cc1cc2cccc(C)c2[nH]c1=O
#34 COc1ccccc1NC(=O)N(Cc1ccco1)Cc1cc2c(C)ccc(C)c2[nH]c1=O
#35 O=C(CN1C(=O)c2ccccc2S1(=O)=O)NCCSCc1c(F)cccc1Cl
#36 O=Nc1c(O)n(Cc2ccc(Cl)cc2)c2ccccc12
#37 O=Nc1c(O)n(Cc2c(Cl)cccc2Cl)c2ccccc12
#38 C=C[C@]12CC[C@H](OC(C)=O)CC1=CCC1C2CC[C@@]2(C)C1CCC21OCCO1 (some centres undefined)
#39 O=C1Nc2ccccc2S/C1=C/Nc1cccc(Cl)c1
#40 O=C1Nc2ccccc2SC1=Cc1ccccc1
#41 Cc1ccc(-n2c(O)c(/C=N/Nc3ccc(S(=O)(=O)N4CCOCC4)cc3[N+](=O)[O-])c3ccccc3c2=O)c(C)c1
#42 OCC1CCCN(C(=S)Nc2ccc(OC(F)F)cc2)C1 (centres undefined)
entry no. | 31 | 32 | 33 | 34 | 35 | 36 | 37 | 38 | 39 | 40 | 41 | 42
ARFGAP1 inhibitor | 6 | -5 | 3 | 1 | -6 | -3 | 2 | 0 | 5 | -12 | 0 | -2
ASAP1 inh | -18 | 5 | 1 | 0 | 10 | 7 | -5 | -1 | 4 | 8 | 16 | -11
MC4R barr agon | -1 | 1 | 0 | -1 | 0 | 3 | 8.4* | -1 | 13* | -1 | -6 | -2
MC4R antagonist | 0 | 2 | 4 | 9 | 3 | 4 | 0 | 1 | -4 | 0 | 2 | 14
NRP1-CendR mod | 2 | 25* | 26* | 12 | 24* | -3 | -10 | 22* | -32 | -6 | 46* | 0
Yeast UUG start | nt | 2 | 0 | -5 | 9 | -12 | nt | -8 | -11 | 3 | nt | -22
